System: Sigma-2 receptor (Rattus norvegicus)
Assay: Displacement of [3H]-di-o-tolylguanidine from sigma-2 receptor in rat liver homogenate at 1 uM by liquid scintillation counting

Compound | inhibition [%]
O=C1CCN[C@H]([C@@H]2COC(c3ccccc3)(c3ccccc3)O2)C1 (racemic) | 54
O=C1CCN[C@H]([C@H]2COC(c3ccccc3)(c3ccccc3)O2)C1 (racemic) | 36

Source: ChEMBL document CHEMBL3217603, “Synthesis and NMDA receptor affinity of dexoxadrol analogues with modifications in position 4 of the piperidine ring” (Medchemcomm, 2010)
